Values of other authors, collected in article doi:10.1101/2021.11.01.466777v1 (bioRxiv, 2021).

Settings: human volunteers; no reference given; cited from earlier work

Which half-life does the source give for daptomycin here?
The half-life was about 8 h.
